Data taken from patent US7888338B2, “7-(2-cyclohexylidene-ethylidene)-spiro[4.5]decanes” (K.U. Leuven Research & Development, priority 2004, dated 2011).

Tested on: MCF-7 cells
Experiment: Measurement of cell proliferation, breast carcinoma cells MCF-7, [3H]thymidine incorporation
Type: cell-based
Settings: cell proliferation ([3H]thymidine incorporation), relative to control 1α,25(OH)2D3 = 100
Description: Selected compounds of the present invention are evaluated for their effect on cell proliferation. Malignant MCF-7 cells are cultured in DMEM nutrient mix F12 (HAM) medium which is supplemented with 10% heat inactivated FCS, glutamine (2 mM), penicillin (100 units/mL) and streptomycin (0.1 mg/mL). The cultures are maintained at 37° C. in an atmosphere of humidified air containing 5% CO2. The MCF-7 cells are seeded at approximately 5×10^3 cells/well in the DMEM modified medium in a 96-well microtiter plate. […]. Finally, 1 μCi of [^3H]thymidine is added to each well and the cells are harvested after a further 4 hour incubation period. The cells are harvested with a Parckard Harvester and the cell count measured by a Packard Topcount System.

## C=C1/C(=C\C=C2/CCC[C@]3(C)[C@@H]([C@H](C)CCCC(C)(C)O)CC[C@@H]23)C[C@@H](O)C[C@@H]1O [1α,25(OH)2D3, 1α,25-dihydroxyvitamin D3]
  MCF-7: 100
